In patent publication US20260382650A1, “PHARMACEUTICAL COMPOSITION FOR TREATING PULMONARY INFLAMMATORY DISEASE, AND PREPARATION AND APPLICATION THEREOF” (published 2026):

Key:
NLRP3 = assay: LPS-induced acute lung injury, qRT-PCR of lung tissue: NLRP3 mRNA; settings: 20 mg/kg each, intragastric; combination 20 + 20 mg/kg; LPS 10 mg/kg
[1] = system: LPS-induced pathological lung damage in mice; assay: LPS-induced acute lung injury, lung H&E histopathology; settings: 20 mg/kg each, intragastric; combination 20 + 20 mg/kg; LPS 10 mg/kg; day 14
COX-2 = assay: LPS-induced acute lung injury, qRT-PCR of lung tissue: COX-2 mRNA; settings: 20 mg/kg each, intragastric; combination 20 + 20 mg/kg; LPS 10 mg/kg
[2] = system: inflammatory cells in peripheral blood of LPS-induced mice; assay: LPS-induced acute lung injury, complete blood count; settings: 20 mg/kg each, intragastric; combination 20 + 20 mg/kg; LPS 10 mg/kg
IL-1β [3] = assay: LPS-induced acute lung injury, IL-1β in BALF by ELISA; settings: 20 mg/kg each, intragastric; combination 20 + 20 mg/kg; LPS 10 mg/kg
IL-1β [4] = assay: LPS-induced acute lung injury, qRT-PCR of lung tissue: IL-1β mRNA; settings: 20 mg/kg each, intragastric; combination 20 + 20 mg/kg; LPS 10 mg/kg
SLC7A11 = assay: LPS-induced acute lung injury, SLC7A11 in lung tissue (Western blot/qRT-PCR); settings: 20 mg/kg, intragastric; LPS 10 mg/kg
GPX4 = assay: LPS-induced acute lung injury, GPX4 in lung tissue (Western blot/qRT-PCR); settings: 20 mg/kg, intragastric; LPS 10 mg/kg
caspase-1 = assay: LPS-induced acute lung injury, qRT-PCR of lung tissue: caspase-1 mRNA; settings: 20 mg/kg each, intragastric; combination 20 + 20 mg/kg; LPS 10 mg/kg
[5] = system: Human liver immortalized THLE-2 cells; assay: Hepatotoxicity, MTT viability of THLE-2 cells; settings: 24 hrs
Human liver THLE-2 cells = assay: ROS production in THLE-2 cells (DCHF-DA, flow cytometry); settings: 24 hrs
[6] = system: human bronchial epithelial Beas-2B cells; assay: Transcriptomic analysis in LPS-induced Beas-2B cells; settings: for downregulated genes / upregulated genes: compared with the inflammation group, |log FC|>1; for potential anti-inflammatory functional genes (targets): intersection of inflammation-group and treatment-group genes regulated in opposite directions (Venny 2.1.0)
[7] = system: LPS-induced RAW264.7 mouse macrophages; assay: NO production inhibition in LPS-induced RAW264.7 macrophages (Griess); settings: LPS 1 μg/mL; for maximum inhibition rate of NO production: 100 μM, 24 hrs; for inhibition of NO production (in words): compounds, 3.13-100 μM
Quinone reductase (QR) = assay: Quinone reductase (QR)-inducing activity in Hepa 1c1c7 cells; settings: for QR induction factor: 100 μM, 24 hrs
RAW 264.7 cells = assay: MTT cytotoxicity in RAW 264.7 cells; settings: compounds, 3.13-100 μM

Structure (SMILES)	NLRP3 mRNA level in lung tissue (NLRP3)	inflammatory symptoms in lung tissue (H&E) [1]	COX-2 mRNA level in lung tissue (COX-2)	neutrophil count in blood [2]	white blood cell count in blood [2]	level of IL-1β in BALF (IL-1β [3])	IL-1B mRNA level in lung tissue (IL-1β [4])	SLC7A11 protein level (SLC7A11)	GPX4 protein level (GPX4)	caspase-1 mRNA level in lung tissue (caspase-1)	hepatotoxicity / cell viability (in words) [5]	ROS levels (in words) (Human liver THLE-2 cells)	maximum inhibition rate of NO production [7]	inhibition of NO production (in words) [7]	QR induction (in words) (Quinone reductase (QR))	QR induction factor (Quinone reductase (QR))	further results
CC1O[C@@H](OC2[C@H](Oc3c(-c4ccc(O)cc4)oc4cc(O)cc(O)c4c3=O)OC(CO)[C@@H](O)[C@@H]2O)C(O)[C@@H](O)[C@H]1O (some centres unmarked)	inhibited the increase in the mRNA levels	significantly alleviated these inflammatory symptoms	inhibited the increase in the mRNA levels	reduced both counts	reduced both counts	reduced the level of IL-1B	inhibited the increase in the mRNA levels	significantly promoted the increase in SLC7A11 and GPX4	significantly promoted the increase in SLC7A11 and GPX4	inhibited the increase in the mRNA levels	–	–	–	–	–	–	–
O=C1CCC[C@@H]2[C@H]3CCCN4CCC[C@@H](CN12)[C@@H]34	inhibited the increase in the mRNA levels	significantly alleviated these inflammatory symptoms	inhibited the increase in the mRNA levels	reduced both counts	reduced both counts	reduced the level of IL-1B	inhibited the increase in the mRNA levels	–	–	inhibited the increase in the mRNA levels	toxic to normal liver cells, inhibiting cell viability in a dose-dependent manner	increasing ROS levels in a dose-dependent manner	–	–	–	–	maximum ROS induction factor (Human liver THLE-2 cells; combinations at ratio 1:1): 2.37 fold
O=C1C=CC[C@@H]2[C@@H]3CCCN4CCC[C@@H](CN12)[C@@H]34	–	–	–	–	–	–	–	–	–	–	–	–	–	–	–	–	downregulated genes [6]: 92 genes; upregulated genes [6]: 243 genes; potential anti-inflammatory functional genes (targets) [6]: 335 potential anti-inflammatory functional genes (targets)
O=c1c(O)c(-c2ccc(O)cc2)oc2cc(O)cc(O)c12	inhibited the increase in the mRNA levels	significantly alleviated these inflammatory symptoms	inhibited the increase in the mRNA levels	reduced both counts	reduced both counts	reduced the level of IL-1B	inhibited the increase in the mRNA levels	significantly promoted the increase in SLC7A11 and GPX4	significantly promoted the increase in SLC7A11 and GPX4	inhibited the increase in the mRNA levels	effectively reduced the hepatotoxicity of matrine	effectively reduced the ROS levels induced by matrine	85.46%	dose-dependently inhibiting NO production	induced QR activity in a dose-dependent manner	3.65	–
O=c1c(O[C@@H]2O[C@H](CO)[C@@H](O)[C@H](O)[C@H]2O)c(-c2ccc(O)cc2)oc2cc(O)cc(O)c12	inhibited the increase in the mRNA levels	significantly alleviated these inflammatory symptoms	inhibited the increase in the mRNA levels	reduced both counts	reduced both counts	reduced the level of IL-1B	inhibited the increase in the mRNA levels	significantly promoted the increase in SLC7A11 and GPX4	significantly promoted the increase in SLC7A11 and GPX4	inhibited the increase in the mRNA levels	–	–	–	–	–	–	–
CC1O[C@@H](OC2[C@H](Oc3c(-c4ccc(O)cc4)oc4c([C@@]56O[C@]5(c5ccc(O)cc5)Oc5cc(O)cc(O)c5C6=O)c(O)cc(O)c4c3=O)OC(CO)[C@@H](O)[C@@H]2O)C(O)[C@@H](O)[C@H]1O (some centres unmarked)	–	–	–	–	–	–	–	–	–	–	effectively reduced the hepatotoxicity of matrine	effectively reduced the ROS levels induced by matrine	59.48%	dose-dependently inhibiting NO production	induced QR activity in a dose-dependent manner	3.65	cytotoxicity (RAW 264.7 cells): no cytotoxicity; downregulated genes [6]: 76 genes; upregulated genes [6]: 303 genes; potential anti-inflammatory functional genes (targets) [6]: 379 potential anti-inflammatory functional genes (targets)
CC1O[C@@H](OC2[C@H](Oc3c(-c4ccc(O)cc4)oc4c([C@]56O[C@@]5(c5ccc(O)cc5)Oc5cc(O)cc(O)c5C6=O)c(O)cc(O)c4c3=O)OC(CO)[C@@H](O)[C@@H]2O)C(O)[C@@H](O)[C@H]1O (some centres unmarked)	–	–	–	–	–	–	–	–	–	–	–	–	60.59%	dose-dependently inhibiting NO production	induced QR activity in a dose-dependent manner	2.13	cytotoxicity (RAW 264.7 cells): no cytotoxicity
